Source: article PMC3260180, “FRET-Based Detection of M1 Muscarinic Acetylcholine Receptor Activation by Orthosteric and Allosteric Agonists” (PLoS ONE, 2012)

By UniProt entry, the sequences of proteins in these tests, tags left out. Where a name states a change or a piece, a line headed by the entry shows the natural chain unless it says otherwise.
UniProt P12657: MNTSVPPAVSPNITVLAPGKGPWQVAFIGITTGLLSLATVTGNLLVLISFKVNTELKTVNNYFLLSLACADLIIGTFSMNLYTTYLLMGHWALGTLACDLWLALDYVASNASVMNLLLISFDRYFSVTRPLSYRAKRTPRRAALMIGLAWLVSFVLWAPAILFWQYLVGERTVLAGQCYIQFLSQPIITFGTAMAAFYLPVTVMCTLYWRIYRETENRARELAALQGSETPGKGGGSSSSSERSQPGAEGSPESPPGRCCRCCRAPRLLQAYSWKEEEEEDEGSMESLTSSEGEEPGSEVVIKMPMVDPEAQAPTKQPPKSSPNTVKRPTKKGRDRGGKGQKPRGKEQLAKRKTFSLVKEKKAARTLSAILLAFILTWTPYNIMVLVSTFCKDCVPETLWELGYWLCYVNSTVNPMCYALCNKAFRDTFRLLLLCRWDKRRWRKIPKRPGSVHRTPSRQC

Target: M1-cam5 mAChR (Mus musculus, UniProt P12657, INS361[…])
Experiment: [3H]NMS saturation binding in HEK293-M1-cam5 cells
Set-up: addition of the EYFP^F46L to the C-terminus of full length M1 mAChR; expressed in transfected cells; host or cells: HEK293 cells stably expressing M1-cam5 (HEK293-M1-cam5)
Details: n = 4, read-out: dissociation constant (K D)

In the case of `C[N+]1(C)[C@@H]2C[C@@H](OC(=O)[C@H](CO)c3ccccc3)C[C@H]1[C@@H]1O[C@@H]12` [[^3H]NMS, N-methyl-[^3H]scopolamine], the Kd is reported as 0.25 ± 0.03 nM.
